Measurements taken from patent US11077169B2, “Soy-derived bioactive peptides for use in compositions and methods for wound healing, tissue engineering, and regenerative medicine” (Temple University-Of The Commonwealth System of Higher …, priority 2015, dated 2021).

Sequences of proteins named here, by UniProt entry; tags and fusion partners are left off. Residues count along the entry.
UniProt Q13797, 30-1035: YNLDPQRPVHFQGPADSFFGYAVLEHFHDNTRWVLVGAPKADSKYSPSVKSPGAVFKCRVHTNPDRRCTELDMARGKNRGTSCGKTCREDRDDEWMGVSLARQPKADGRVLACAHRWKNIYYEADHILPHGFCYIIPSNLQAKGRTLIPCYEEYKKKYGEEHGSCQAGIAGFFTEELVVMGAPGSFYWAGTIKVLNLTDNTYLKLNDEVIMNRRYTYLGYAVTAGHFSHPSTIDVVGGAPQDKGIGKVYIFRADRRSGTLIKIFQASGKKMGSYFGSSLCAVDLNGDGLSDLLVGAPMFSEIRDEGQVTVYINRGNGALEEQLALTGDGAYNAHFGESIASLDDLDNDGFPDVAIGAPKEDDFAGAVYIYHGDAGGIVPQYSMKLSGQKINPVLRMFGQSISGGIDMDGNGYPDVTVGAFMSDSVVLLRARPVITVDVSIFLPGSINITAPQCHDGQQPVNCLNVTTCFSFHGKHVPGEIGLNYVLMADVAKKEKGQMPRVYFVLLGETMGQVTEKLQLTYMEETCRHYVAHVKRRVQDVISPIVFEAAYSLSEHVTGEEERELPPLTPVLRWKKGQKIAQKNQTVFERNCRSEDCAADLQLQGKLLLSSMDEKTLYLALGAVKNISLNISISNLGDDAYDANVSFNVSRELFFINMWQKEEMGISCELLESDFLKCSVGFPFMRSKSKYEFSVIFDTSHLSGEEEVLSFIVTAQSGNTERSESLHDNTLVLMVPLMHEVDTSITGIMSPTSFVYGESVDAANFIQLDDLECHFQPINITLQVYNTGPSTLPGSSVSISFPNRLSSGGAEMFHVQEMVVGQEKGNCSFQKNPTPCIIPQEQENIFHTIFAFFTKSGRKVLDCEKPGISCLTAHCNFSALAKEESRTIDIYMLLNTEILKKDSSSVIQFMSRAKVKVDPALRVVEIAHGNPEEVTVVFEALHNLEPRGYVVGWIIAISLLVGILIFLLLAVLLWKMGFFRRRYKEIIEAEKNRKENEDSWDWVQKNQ

Biological target: T1, α9β1 integrin (Homo sapiens, UniProt P05556+Q13797)
T1 construct: expressed in transfected cells; host or cells: α9+ cells (α9-transfected)
Assay: inhibition of α9LN18 cell adhesion by LDV peptide
Type: cell-based
Conditions: α9LN18 cells
Source text: CS-1, which contains the LDV (EILDVPST) sequence (SEQ ID NO.: 1), was purchased and tested in a cell adhesion assay. LN18 cells transfected with the α9 integrin subunit (α9LN18) were used in this assay. Immobilized F9 fraction and recombinant VCAM-1 were used as ligands for α9β1 integrin. […] This is the first proof that the LDV motif present in β-conglycinin alpha' is a binding site for α9β1 integrin. […] Next steps include synthesizing a peptide that resembles CS-1 peptide from β-conglycinin alpha' (RDLDVFLS) (SEQ ID NO.: 2), which will be tested as an inhibitor of binding of α9β1 integrin to F9 and to VCAM-1 in a cell adhesion assay using cells expressing this integrin, as well as in an ELISA using purified α9β1 integrin. This strategy will confirm that the LDV motif present in soy β-conglycinin alpha' is a binding site for α9β1 integrin.

## EILDVPST [CS-1]
Ligand immobilized F9
  concentration that completely inhibited cell adhesion to immobilized F9 fraction: around 500 μM
Ligand recombinant VCAM-1
  concentration that completely inhibited cell adhesion to recombinant VCAM-1: around 500 μM
